The assay deals with high affinity CNS nicotinic receptors. Format: binding, rat (Sprague-Dawley).

Each structure is given as a SMILES string.

By Ki is commonly meant a measure of affinity in units of concentration, obtained from inhibition or displacement. Read a low Ki as a stronger hold on the target. In turn, `NCC/C=C/c1cncnc1.O=C(O)/C=C/C(=O)O` [Sample No. 1, (E)-4-(5-pyrimidinyl)-3-butene-1-amine monofumarate] came in with a Ki of 269 nM.

Source of the values: patent US5824692A (priority 1995, dated 1998).
